The values that follow come from patent publication US20190328887A1.

The chains behind the UniProt entries cited, without tags or fusion partners. Where a name states a change or a piece, a line headed by the entry shows the natural chain unless it says otherwise.
UniProt Q9ULZ1: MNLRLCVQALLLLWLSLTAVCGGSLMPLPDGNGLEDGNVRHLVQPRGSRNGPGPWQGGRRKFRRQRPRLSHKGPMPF

The experiment addresses human APJ (apelin) receptor (human) (UniProt P35414).

Take pE13F (from UniProt Q9ULZ1) (peptide): the IC50 cAMP stood at 24 nM.
